This is an account of results in paper PMC2765192 (Journal of medicinal chemistry, 2009).

Chains of the proteins cited; added tags and fusions are not shown. Residues count along the entry.
UniProt Q14833, 33-912: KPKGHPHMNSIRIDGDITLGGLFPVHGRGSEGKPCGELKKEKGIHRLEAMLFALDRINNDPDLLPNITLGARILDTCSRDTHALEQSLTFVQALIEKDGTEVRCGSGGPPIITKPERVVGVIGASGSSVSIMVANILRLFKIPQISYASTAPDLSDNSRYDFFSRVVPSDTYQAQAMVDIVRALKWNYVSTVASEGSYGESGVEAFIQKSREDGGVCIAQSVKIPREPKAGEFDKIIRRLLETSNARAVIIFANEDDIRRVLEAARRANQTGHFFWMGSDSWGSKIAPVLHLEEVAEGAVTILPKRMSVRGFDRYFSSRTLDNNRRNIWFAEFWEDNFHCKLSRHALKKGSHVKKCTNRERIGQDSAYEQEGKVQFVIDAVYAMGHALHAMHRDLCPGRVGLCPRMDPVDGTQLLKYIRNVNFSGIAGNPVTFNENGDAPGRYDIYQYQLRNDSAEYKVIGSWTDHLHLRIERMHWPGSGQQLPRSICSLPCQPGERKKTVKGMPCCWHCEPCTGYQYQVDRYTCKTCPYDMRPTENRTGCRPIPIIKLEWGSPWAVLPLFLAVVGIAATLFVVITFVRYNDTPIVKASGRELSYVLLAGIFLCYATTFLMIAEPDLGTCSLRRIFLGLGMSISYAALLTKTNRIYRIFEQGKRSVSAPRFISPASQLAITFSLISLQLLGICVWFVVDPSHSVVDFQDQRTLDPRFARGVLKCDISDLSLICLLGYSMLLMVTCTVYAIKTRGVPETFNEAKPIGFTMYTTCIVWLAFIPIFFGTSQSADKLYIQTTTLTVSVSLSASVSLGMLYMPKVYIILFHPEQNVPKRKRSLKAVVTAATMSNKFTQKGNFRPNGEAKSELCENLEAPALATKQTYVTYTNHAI

The target of this test is human mGluR4 (Homo sapiens, UniProt Q14833). Kind of test: Fold shift of glutamate concentration-response curve, human mGluR4/Gqi5 cells. Particulars: 30 •M compound, representative experiment in triplicate.

Take `COc1cc(NC(=O)c2ccccn2)ccc1Cl` [Compound 9b]: the “shift of the glutamate concentration-response curve to the left” value was 33 fold.
